Earlier results as cited in patent US20120134978A1, “Cross-Linking of Superoxide Dismutase Monomers” (Brandeis University, priority 2009, published 2012).

Tested on: Amyotrophic Lateral Sclerosis patients
Settings: ALS patients; cited from earlier work

**Q.** For `Nc1nc2ccc(OC(F)(F)F)cc2s1` [Riluzole], which “effect on patient survival and quality of life” value is on record?
**A.** Its value is “moderate effect on patient survival and quality of life”.
